Measured values published in US12594292B2, “Antiviral prodrugs, intermediate-and long-acting formulations and methods” (priority 2022, dated 2026).

Assay: 3 month (105 day) study of monthly IM injections of ODE-Bn-TFV in formulation F3 in rats
Details: 3 monthly IM doses at 0, 30 and 60 days

CCCCCCCCCCCCCCCCCCOCCOP(=O)(O)CO[C@H](C)Cn1cnc2c(N)ncnc21 [ODE-TFV]
time therapeutic levels were maintained: 105 days
